Measurements from patent US8022102B2, “Unsaturated tetracyclic tetrahydrofuran derivatives” (Janssen Pharmaceutica, NV, priority 2004, dated 2011).
Read-outs that look alike come from different tables or passages of the source.

The chains behind the UniProt entries cited, without tags or fusion partners. Where a name states a change or a piece, a line headed by the entry shows the natural chain unless it says otherwise. Residues count along the entry.
UniProt P28335, 33-458: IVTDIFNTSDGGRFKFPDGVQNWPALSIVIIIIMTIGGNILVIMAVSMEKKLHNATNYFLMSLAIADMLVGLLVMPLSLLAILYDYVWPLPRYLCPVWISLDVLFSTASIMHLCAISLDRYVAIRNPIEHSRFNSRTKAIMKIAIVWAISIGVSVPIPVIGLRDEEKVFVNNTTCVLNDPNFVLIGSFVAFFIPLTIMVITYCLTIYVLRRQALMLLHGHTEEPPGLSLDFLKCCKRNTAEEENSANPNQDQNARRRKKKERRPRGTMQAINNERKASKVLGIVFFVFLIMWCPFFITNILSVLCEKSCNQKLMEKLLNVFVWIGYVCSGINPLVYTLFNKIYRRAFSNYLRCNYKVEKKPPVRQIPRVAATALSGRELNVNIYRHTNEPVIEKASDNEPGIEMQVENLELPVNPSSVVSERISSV
UniProt Q9WTR4, 1-597: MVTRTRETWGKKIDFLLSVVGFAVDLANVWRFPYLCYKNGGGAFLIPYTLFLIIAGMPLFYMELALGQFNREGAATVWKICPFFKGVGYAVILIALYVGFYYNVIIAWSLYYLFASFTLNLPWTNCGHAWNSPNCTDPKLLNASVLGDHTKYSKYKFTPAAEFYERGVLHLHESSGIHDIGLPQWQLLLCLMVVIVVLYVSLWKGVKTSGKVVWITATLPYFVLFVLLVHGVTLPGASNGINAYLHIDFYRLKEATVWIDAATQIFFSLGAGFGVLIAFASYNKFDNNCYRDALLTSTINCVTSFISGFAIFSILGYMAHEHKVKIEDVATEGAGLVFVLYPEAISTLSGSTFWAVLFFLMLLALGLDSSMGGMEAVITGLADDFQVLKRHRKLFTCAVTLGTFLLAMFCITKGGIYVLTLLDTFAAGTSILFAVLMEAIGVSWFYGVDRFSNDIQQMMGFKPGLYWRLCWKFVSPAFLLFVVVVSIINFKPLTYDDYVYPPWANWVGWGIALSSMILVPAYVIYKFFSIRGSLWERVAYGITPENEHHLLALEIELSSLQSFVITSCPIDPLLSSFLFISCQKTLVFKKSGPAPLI
UniProt P14416, whole entry: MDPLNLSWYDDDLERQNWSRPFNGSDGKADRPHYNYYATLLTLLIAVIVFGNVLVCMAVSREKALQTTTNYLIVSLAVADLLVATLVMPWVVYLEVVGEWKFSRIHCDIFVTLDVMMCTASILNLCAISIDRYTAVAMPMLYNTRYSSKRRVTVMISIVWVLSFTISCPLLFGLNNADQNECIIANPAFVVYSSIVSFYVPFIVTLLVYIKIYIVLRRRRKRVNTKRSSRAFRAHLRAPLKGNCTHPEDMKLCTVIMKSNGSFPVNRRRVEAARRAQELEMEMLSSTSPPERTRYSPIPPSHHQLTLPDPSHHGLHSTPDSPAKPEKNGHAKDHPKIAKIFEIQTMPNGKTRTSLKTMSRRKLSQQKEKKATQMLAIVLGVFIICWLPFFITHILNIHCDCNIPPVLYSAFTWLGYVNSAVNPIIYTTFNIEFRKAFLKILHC

Assays:
[1] = target: T1, human cloned 5-HT2C receptor (Homo sapiens, UniProt P28335); assay: In vitro binding affinity for 5-HT2C receptor (radioligand binding); conditions: read-out: h-5HT2C (converted)
T1 construct: expressed in transfected cells; host or cells: CHO cells
Experimental: The interaction of the compounds of Formula (I) with 5-HT2A and 5-HT2C receptors was assessed in in vitro radioligand binding experiments. […] During the incubation, the radioligands bind to the receptor. When equilibrium of binding is reached, the receptor bound radioactivity is separated from the non-bound radioactivity, and the receptor bound activity is counted. The interaction of the test compounds with the receptors is assessed in competition binding experiments. Various concentrations of the test compound are added to the incubation mixture containing the tissue preparation and the radioligand. Binding of the radioligand will be inhibited by the test compound in proportion to its binding affinity and its concentration.

[2] = target: T2, NET (Rattus norvegicus, UniProt Q9WTR4); assay: In vitro determination of NET reuptake inhibition ([3H]Nixosetine binding, rat brain cortex)
T2 construct: Cortex from rat brain was collected and homogenised; from tissue; host or cells: rat brain cortex
Experimental: Cortex from rat brain was collected and homogenised using an Ultra-Turrax T25 and a Dual homogeniser in ice-cold homogenising buffer containing Tris, NaCl and KCl (50 mM, 120 mM and 5 mM, respectively, pH 7.4) prior to dilution to an appropriate protein concentration optimised for specific and non-specific binding. […] Membrane-bound activity was detected by filtration through a Packard Filtermate harvester onto GF/B Unifilterplates, washed with ice-cold Tris-HCl buffer, containing NaCl and KCl (50 mM, 120 mM and 4 mM; pH 7.4; 6×0.5 ml). Filters were allowed to dry for 24 h before adding scintillation fluid. Scintillation fluid was allowed to saturate filters for 24 h before counting in a Topcount scintillation counter. Percentage specific bound and competition binding curves were calculated using S-Plus software (Insightful).

[3] = target: T3, human Dopamine D2L receptor (Homo sapiens, UniProt P14416); assay: In vitro binding affinity for human D2L receptor ([3H]Spiperone); conditions: human D2L receptor-transfected CHO cell membranes
T3 construct: expressed in transfected cells; host or cells: CHO cells
Experimental: Frozen membranes of human Dopamine D2L receptor-transfected CHO cells were thawed, briefly homogenised using an Ultra-Turrax T25 homogeniser and diluted in Tris-HCl assay buffer containing NaCl, CaCl2, MgCl2, KCl (50, 120, 2, 1, and 5 mM respectively, adjusted to pH 7.7 with HCl) to an appropriate protein concentration optimised for specific and non-specific binding. Radioligand [^3H]Spiperone (NEN, specific activity ˜70 Ci/mmol) was diluted in assay buffer at a concentration of 2 nmol/L. Prepared radioligand (50 μl), along with 50 μl of either the 10% DMSO control, Butaclamol (10^−6 mol/l final concentration), or compound of interest, was then incubated (30 min, 37° C.) with 400 μl of the prepared membrane solution. Membrane-bound activity was filtered through a Packard Filtermate harvester onto GF/B Unifilterplates and washed with ice-cold Tris-HCl buffer (50 mM; pH 7.7; 6×0.5 ml). Filters were allowed to dry before adding scintillation fluid and counting in a Topcount scintillation counter. Percentage specific bound and competition binding curves were calculated using S-Plus software (Insightful).

[4] = read-out: NET Reuptake Inhibition (converted)

SMILES	IC50 [2, 4]	also measured
CN(C[C@H]1CC2=C(O1)c1cc(F)ccc1Cc1ccccc12)C1CC(=O)NC1=O (mixture of isomers) [Compound 124]	6310 nM	IC50 [1]: 63.1 nM
CNCC1CC2=C(O1)c1cc(F)ccc1Sc1ccccc12 (single isomer, unassigned) [Compound 13]	6.31 nM	
CN(C)CC1CC2=C(O1)c1ccccc1Cc1ccccc12 (single isomer, unassigned) [Compound 23]	631 nM	
CN(C)CC1CC2=C(O1)c1ccccc1Cc1ccccc12 (single isomer, unassigned) [Compound 24]	31.6 nM	
NCC1CC2=C(O1)c1cc(F)ccc1Cc1ccccc12 (stereo not drawn) [Compound 1]	316 nM	IC50 [3]: 316 nM
CNCC1CC2=C(O1)c1cc(Br)ccc1Cc1ccccc12 (stereo not drawn) [Compound 5]	251 nM	
CCCCc1ccc2c(c1)C1=C(CC(CNC)O1)c1ccccc1C2 (stereo not drawn) [Compound 6]	7940 nM	IC50 [1]: 7.94 nM
CNCC1CC2=C(O1)c1cc(F)ccc1C(C)c1ccccc12 (stereo not drawn) [Compound 8]	39.8 nM	
CCNCC1CC2=C(O1)c1cc(F)ccc1Sc1ccccc12 (stereo not drawn) [Compound 18]	3.16 nM	
OCCNCC1CC2=C(O1)c1cc(F)ccc1Cc1ccccc12 (stereo not drawn) [Compound 19]	39.8 nM	
CN(C)CC1CC2=C(O1)c1ccccc1Cc1ccccc12 (stereo not drawn) [Compound 22]	79.4 nM	IC50 [3]: 631 nM
CN(C)CC1CC2=C(O1)c1ccccc1Oc1ccccc12 (stereo not drawn) [Compound 25]	251 nM	
CN(C)CC1CC2=C(O1)c1cc(F)ccc1Oc1ccccc12 (stereo not drawn) [Compound 26]	39.8 nM	IC50 [3]: 398 nM
CN(C)CC1CC2=C(O1)c1cc(Br)ccc1Oc1ccccc12 (stereo not drawn) [Compound 27]	501 nM	IC50 [3]: 50.1 nM
CN(C)CC1CC2=C(O1)c1cc(F)ccc1Sc1ccccc12 (stereo not drawn) [Compound 28]	5.01 nM	IC50 [1]: 0.501 nM
CN(CCO)CC1CC2=C(O1)c1cc(F)ccc1Cc1ccccc12 (stereo not drawn) [Compound 31]	39.8 nM	IC50 [3]: 39.8 nM
CN(CCO)CC1CC2=C(O1)c1cc(F)ccc1Oc1ccccc12 (stereo not drawn) [Compound 32]	200 nM	
OC1CCN(CC2CC3=C(O2)c2cc(F)ccc2Cc2ccccc23)C1 (stereo not drawn) [Compound 33]	1260 nM	
OC1CCN(CC2CC3=C(O2)c2cc(F)ccc2Sc2ccccc23)C1 (stereo not drawn) [Compound 34]	501 nM	IC50 [1]: 0.501 nM
OC1CCCN(CC2CC3=C(O2)c2cc(F)ccc2Cc2ccccc23)C1 (stereo not drawn) [Compound 37]	3980 nM	

SMILES	IC50 [2, 4]	also measured
OCCC1CCN(CC2CC3=C(O2)c2cc(F)ccc2Cc2ccccc23)CC1 (stereo not drawn) [Compound 38]	3980 nM	
COc1cc2c(cc1OC)CN(CC1CC3=C(O1)c1cc(F)ccc1Cc1ccccc13)CC2 (stereo not drawn) [Compound 40]	3980 nM	
OCCN1CCN(CC2CC3=C(O2)c2cc(F)ccc2Cc2ccccc23)CC1 (stereo not drawn) [Compound 41]	7940 nM	
OCCN1CCN(CC2CC3=C(O2)c2cc(F)ccc2Sc2ccccc23)CC1 (stereo not drawn) [Compound 42]	> 10000 nM	
CS(=O)(=O)N1CCN(CC2CC3=C(O2)c2cc(F)ccc2Oc2ccccc23)CC1 (stereo not drawn) [Compound 45]	1000 nM	
O=S(=O)(Cc1ccccc1)N1CCN(CC2CC3=C(O2)c2cc(F)ccc2Cc2ccccc23)CC1 (stereo not drawn) [Compound 51]	> 10000 nM	
O=S(=O)(Cc1ccccc1)N1CCN(CC2CC3=C(O2)c2cc(F)ccc2Oc2ccccc23)CC1 (stereo not drawn) [Compound 52]	1000 nM	
CC(=O)N1CCN(CC2CC3=C(O2)c2cc(F)ccc2Cc2ccccc23)CC1 (stereo not drawn) [Compound 53]	2000 nM	
CC(=O)N1CCN(CC2CC3=C(O2)c2cc(F)ccc2Oc2ccccc23)CC1 (stereo not drawn) [Compound 54]	1580 nM	IC50 [3]: 1580 nM
CCCC(=O)N1CCN(CC2CC3=C(O2)c2cc(F)ccc2Cc2ccccc23)CC1 (stereo not drawn) [Compound 55]	2510 nM	
CCCC(=O)N1CCN(CC2CC3=C(O2)c2cc(F)ccc2Oc2ccccc23)CC1 (stereo not drawn) [Compound 56]	1580 nM	
O=C(C1CC1)N1CCN(CC2CC3=C(O2)c2cc(F)ccc2Cc2ccccc23)CC1 (stereo not drawn) [Compound 57]	5010 nM	
COC(=O)CC(=O)N1CCN(CC2CC3=C(O2)c2cc(F)ccc2Cc2ccccc23)CC1 (stereo not drawn) [Compound 59]	> 10000 nM	
CCOC(=O)N1CCN(CC2CC3=C(O2)c2cc(F)ccc2Cc2ccccc23)CC1 (stereo not drawn) [Compound 61]	3160 nM	
CCOC(=O)N1CCN(CC2CC3=C(O2)c2cc(F)ccc2Oc2ccccc23)CC1 (stereo not drawn) [Compound 62]	> 10000 nM	
COc1ccc(C(=O)N2CCN(CC3CC4=C(O3)c3cc(F)ccc3Oc3ccccc34)CC2)cc1 (stereo not drawn) [Compound 74]	794 nM	
CN(C)C(=O)N1CCN(CC2CC3=C(O2)c2cc(F)ccc2Cc2ccccc23)CC1 (stereo not drawn) [Compound 75]	> 10000 nM	
CN(C)C(=O)N1CCN(CC2CC3=C(O2)c2cc(F)ccc2Oc2ccccc23)CC1 (stereo not drawn) [Compound 76]	2000 nM	
CCCCNC(=O)N1CCN(CC2CC3=C(O2)c2cc(F)ccc2Cc2ccccc23)CC1 (stereo not drawn) [Compound 77]	7940 nM	IC50 [1]: 7.94 nM
CCCCNC(=O)N1CCN(CC2CC3=C(O2)c2cc(F)ccc2Oc2ccccc23)CC1 (stereo not drawn) [Compound 78]	1260 nM	IC50 [3]: 1260 nM

SMILES	IC50 [2, 4]	also measured
O=C(NC1CCCCC1)N1CCN(CC2CC3=C(O2)c2cc(F)ccc2Cc2ccccc23)CC1 (stereo not drawn) [Compound 79]	7940 nM	IC50 [1]: 79.4 nM
O=C(NC1CCCCC1)N1CCN(CC2CC3=C(O2)c2cc(F)ccc2Oc2ccccc23)CC1 (stereo not drawn) [Compound 80]	1580 nM	
CCOC(=O)CNC(=O)N1CCN(CC2CC3=C(O2)c2cc(F)ccc2Oc2ccccc23)CC1 (stereo not drawn) [Compound 82]	2000 nM	
O=C(Nc1ccccc1)N1CCN(CC2CC3=C(O2)c2cc(F)ccc2Cc2ccccc23)CC1 (stereo not drawn) [Compound 83]	5010 nM	
O=C(Nc1ccccc1)N1CCN(CC2CC3=C(O2)c2cc(F)ccc2Oc2ccccc23)CC1 (stereo not drawn) [Compound 84]	1580 nM	
O=C(Nc1ccc(F)cc1)N1CCN(CC2CC3=C(O2)c2cc(F)ccc2Cc2ccccc23)CC1 (stereo not drawn) [Compound 85]	5010 nM	IC50 [1]: 5.01 nM
COc1ccc(NC(=O)N2CCN(CC3CC4=C(O3)c3cc(F)ccc3Cc3ccccc34)CC2)cc1 (stereo not drawn) [Compound 89]	6310 nM	
COc1ccc(NC(=O)N2CCN(CC3CC4=C(O3)c3cc(F)ccc3Oc3ccccc34)CC2)cc1 (stereo not drawn) [Compound 90]	2000 nM	
COc1ccccc1NC[C@@H]1CC2=C(O1)c1cc(F)ccc1Cc1ccccc12 [Compound 106]	> 10000 nM	
CN(CC(=O)O)C[C@H]1CC2=C(O1)c1cc(F)ccc1Cc1ccccc12 [Compound 107]	1580 nM	
CN(C[C@H]1CC2=C(O1)c1cc(F)ccc1Cc1ccccc12)C(=O)Oc1ccccc1 [Compound 111]		IC50 ([2]; NET Reuptake Inhibition): > 10000 nM
CN(CC(=O)c1ccccc1)C[C@H]1CC2=C(O1)c1cc(F)ccc1Cc1ccccc12 [Compound 114]	100 nM	
CN(CC(N)=O)C[C@H]1CC2=C(O1)c1cc(F)ccc1Cc1ccccc12 [Compound 115]	501 nM	
CN(CC(=O)Nc1ccccc1)C[C@H]1CC2=C(O1)c1cc(F)ccc1Cc1ccccc12 [Compound 118]	6310 nM	
COc1ccccc1NC(=O)CN(C)C[C@H]1CC2=C(O1)c1cc(F)ccc1Cc1ccccc12 [Compound 119]	5010 nM	
CNC(=O)/C=C/CN(C)C[C@H]1CC2=C(O1)c1cc(F)ccc1Cc1ccccc12 [Compound 123]	200 nM	
CN(Cc1nnn[nH]1)C[C@H]1CC2=C(O1)c1cc(F)ccc1Cc1ccccc12 [Compound 125]	79.4 nM	
CNC(=N)CN(C)CC1CC2=C(O1)c1cc(F)ccc1Cc1ccccc12 (stereo not drawn) [Compound 138]	794 nM	
